From ChEMBL document CHEMBL3271962 (J Med Chem, 1976)

By UniProt entry, the sequences of proteins in these tests, tags left out.
UniProt Q63380, whole entry: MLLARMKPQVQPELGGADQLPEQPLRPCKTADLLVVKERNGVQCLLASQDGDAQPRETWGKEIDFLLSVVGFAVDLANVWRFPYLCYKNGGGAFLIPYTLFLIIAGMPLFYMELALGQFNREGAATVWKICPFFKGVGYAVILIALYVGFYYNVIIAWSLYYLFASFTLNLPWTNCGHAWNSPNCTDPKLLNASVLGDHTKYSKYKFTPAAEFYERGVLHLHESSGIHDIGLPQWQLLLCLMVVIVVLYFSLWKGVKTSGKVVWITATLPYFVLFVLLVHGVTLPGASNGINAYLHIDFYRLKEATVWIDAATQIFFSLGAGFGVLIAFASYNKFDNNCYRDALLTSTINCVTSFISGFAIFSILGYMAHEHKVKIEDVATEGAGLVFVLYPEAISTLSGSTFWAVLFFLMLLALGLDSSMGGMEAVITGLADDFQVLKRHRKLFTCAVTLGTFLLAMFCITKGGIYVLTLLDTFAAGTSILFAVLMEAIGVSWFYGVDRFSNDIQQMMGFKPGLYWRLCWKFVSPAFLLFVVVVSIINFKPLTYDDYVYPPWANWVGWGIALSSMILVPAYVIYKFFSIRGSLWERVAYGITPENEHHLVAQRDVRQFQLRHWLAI

Biological target: Transporter (Rattus norvegicus, UniProt Q63380)
Experiment: Inhibition of [3H]norepinephrine uptake at NET expressed in rat hypothalamic homogenate containing synaptosomes after 5 mins by scintillation counting analysis
Format: subcellular, Brain

Compound: CC(N)Cc1ccccc1 (racemic) [AMPHETAMINE]
- IC50: 0.2 µM
